Results reported in US20200063116A1.

Molecular target: recombinant human soluble thrombomodulin (rhs-TM), also called ART-123 (human) (UniProt P07204)
Assay: enzyme capture assay: thrombin captured on a plate coated with rhs-TM/ART-123, washed, captured enzyme read with chromogenic substrate S-2366

OD 405 at day 1: 0.569 OD 405
OD 405 at day 4: 1.67 OD 405
Substance: human alpha-thrombin (catalog number RP-43100, Thermo Fisher Scientific) (enzyme)
